Activity calls are given as the source filed them. The rule behind the calls is not given here.
Target: DNA repair nuclease/redox regulator APEX1 (Homo sapiens, UniProt P27695)
Test: Inhibition of Ape1/ref-1 endonuclease activity up to 100 uM

Chains of the proteins cited; added tags and fusions are not shown.
UniProt P27695, whole entry: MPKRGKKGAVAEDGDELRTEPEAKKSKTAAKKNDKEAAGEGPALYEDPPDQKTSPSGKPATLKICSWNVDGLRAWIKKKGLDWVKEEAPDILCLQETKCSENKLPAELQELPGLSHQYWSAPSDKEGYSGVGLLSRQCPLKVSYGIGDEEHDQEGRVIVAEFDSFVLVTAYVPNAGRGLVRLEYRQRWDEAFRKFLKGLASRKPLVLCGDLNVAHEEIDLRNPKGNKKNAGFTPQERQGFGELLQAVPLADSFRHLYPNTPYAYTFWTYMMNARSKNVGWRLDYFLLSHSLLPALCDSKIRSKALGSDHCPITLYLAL

inhibition: inactive
SMILES: C/C(=C\C1=C(Br)C(=O)c2ccccc2C1=O)C(=O)O
